Measurements reported in patent US20100184799A1, “OXADIAZOLE BETA CARBOLINE DERIVATIVES AS ANTIDIABETIC COMPOUNDS” (priority 2009, published 2010).

The chains behind the UniProt entries cited, without tags or fusion partners.
UniProt P32745, whole entry: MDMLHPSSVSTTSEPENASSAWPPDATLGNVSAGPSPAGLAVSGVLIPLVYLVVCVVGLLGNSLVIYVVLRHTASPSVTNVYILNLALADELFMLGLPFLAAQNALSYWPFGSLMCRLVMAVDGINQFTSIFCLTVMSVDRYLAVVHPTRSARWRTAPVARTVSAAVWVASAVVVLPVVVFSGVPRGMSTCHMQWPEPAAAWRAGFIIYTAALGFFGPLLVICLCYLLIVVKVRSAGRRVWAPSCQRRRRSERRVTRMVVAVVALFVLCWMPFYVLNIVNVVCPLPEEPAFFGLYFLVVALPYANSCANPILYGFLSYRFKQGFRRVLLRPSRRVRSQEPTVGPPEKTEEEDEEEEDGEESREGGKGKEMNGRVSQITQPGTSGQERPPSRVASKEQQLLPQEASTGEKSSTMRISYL

Target: SSTR3 (Homo sapiens, UniProt P32745)
Assay: SSTR3 receptor-ligand binding assay, (3-125I-Tyr11)-SRIF-14 radioligand, CHO-K1 cell membranes
Conditions: read-out: SSTR3 Ki; cloned human SSTR3, CHO-K1 membranes, 0.1 nM radioligand

Q: How did the Ki turn out when CCn1nnc(C2(c3nnc(O)o3)N[C@@H](c3nc(-c4ccc(F)cn4)c[nH]3)Cc3c2[nH]c2ccccc32)n1 (single isomer, unassigned) [45] was run?
A: 10.4 nM

Q: CCn1cc(C2(c3nnc(O)o3)N[C@@H](c3nc(-c4ccc(F)cc4)c[nH]3)Cc3c2[nH]c2ccccc32)cn1 (stereo partly drawn) was tested. Which Ki did it give?
A: 2.2 nM

Q: Which Ki does the source give for CSc1nnc(C2(c3cnn(C)c3)N[C@@H](c3nc(-c4ccc(F)cn4)c[nH]3)Cc3c2[nH]c2ccccc32)o1 (stereo partly drawn) here?
A: 3 nM

Q: With COCc1nc(C2(c3nn(C)c(=O)o3)N[C@@H](c3nc(-c4ccc(F)cn4)c[nH]3)Cc3c2[nH]c2ccccc32)no1 (stereo partly drawn) as the compound, how does the Ki read?
A: 4.7 nM

Q: Which Ki does the source give for Cn1cc(C2(c3nnc(O)o3)N[C@@H](c3nc(-c4ccc(F)cc4)c[nH]3)Cc3c2[nH]c2ccccc32)cn1 (single isomer, unassigned) [19] here?
A: 23.6 nM

Q: How did the Ki turn out when CCn1nnc(C2(c3nn(C)c(=O)o3)N[C@@H](c3nc(-c4ccc(F)cn4)c[nH]3)Cc3c2[nH]c2ccccc32)n1 (single isomer, unassigned) [47] was run?
A: 35 nM

Q: CCn1nc(C2(c3ccc(C#N)cc3)N[C@@H](c3nc(-c4ccc(F)cn4)c[nH]3)Cc3c2[nH]c2ccccc32)oc1=O (single isomer, unassigned) [17] was tested. Which Ki did it give?
A: 18.3 nM

Q: For CCn1nc(C2(c3ccc(C#N)cc3)N[C@@H](c3nc(-c4ccc(F)cn4)c[nH]3)Cc3c2[nH]c2ccccc32)oc1=O (single isomer, unassigned) [16], which Ki is on record?
A: 5.6 nM

Q: With CCn1nc(C2(c3noc(COC)n3)N[C@@H](c3nc(-c4ccc(F)cn4)c[nH]3)Cc3c2[nH]c2ccccc32)oc1=O (single isomer, unassigned) [41] as the compound, how does the Ki read?
A: 15.9 nM

Q: For CCn1nnc(C2(c3nnc(O)o3)N[C@@H](c3nc(-c4ccc(F)cn4)c[nH]3)Cc3c2[nH]c2ccccc32)n1 (single isomer, unassigned) [44], which Ki is on record?
A: 250 nM

Q: Cn1nnc(C2(c3nnc(O)o3)N[C@@H](c3nc(-c4ccc(F)cn4)c[nH]3)Cc3c2[nH]c2ccccc32)n1 (stereo partly drawn) was tested. Which Ki did it give?
A: 570 nM

Q: CCn1nc(C2(c3nnn(C)n3)N[C@@H](c3nc(-c4ccc(F)cn4)c[nH]3)Cc3c2[nH]c2ccccc32)oc1=O (stereo partly drawn) was tested. Which Ki did it give?
A: 22.7 nM

Q: Which Ki does the source give for COCc1nc(C2(c3nnc(O)o3)N[C@@H](c3nc(-c4ccc(F)cn4)c[nH]3)Cc3c2[nH]c2ccccc32)no1 (stereo partly drawn) here?
A: 4.7 nM

Q: With Cn1cc(C2(c3nnc(O)o3)N[C@@H](c3nc(-c4ccc(F)cn4)c[nH]3)Cc3c2[nH]c2ccccc32)cn1 (single isomer, unassigned) [Example 20] as the compound, how does the Ki read?
A: 398 nM

Q: Which Ki does the source give for CCn1nnc(C2(c3nn(C)c(=O)o3)N[C@@H](c3nc(-c4ccc(F)cn4)c[nH]3)Cc3c2[nH]c2ccccc32)n1 (single isomer, unassigned) [46] here?
A: 2.9 nM

Q: Cn1cc(C2(c3nnc(N)o3)N[C@@H](c3nc(-c4ccc(F)cc4)c[nH]3)Cc3c2[nH]c2ccccc32)cn1 (single isomer, unassigned) [Example 52] was tested. Which Ki did it give?
A: 1.3 nM

Q: Which Ki does the source give for Oc1nnc(C2(c3cnn(C4CC4)c3)N[C@@H](c3nc(-c4ccc(F)cn4)c[nH]3)Cc3c2[nH]c2ccccc32)o1 (stereo partly drawn) here?
A: 3.2 nM

Q: With Cc1nc(C2(c3nnc(N)o3)N[C@@H](c3nc(-c4ccc(F)cc4)c[nH]3)Cc3c2[nH]c2ccccc32)no1 (stereo partly drawn) as the compound, how does the Ki read?
A: 4.2 nM

Q: CCn1nc(C2(c3noc(COC)n3)N[C@@H](c3nc(-c4ccc(F)cn4)c[nH]3)Cc3c2[nH]c2ccccc32)oc1=O (single isomer, unassigned) [40] was tested. Which Ki did it give?
A: 2.3 nM

Q: Which Ki does the source give for CCn1nc([C@]2(C)N[C@@H](c3nc(-c4ccc(F)cn4)c[nH]3)Cc3c2[nH]c2ccccc32)oc1=O here?
A: 31.1 nM

Q: Cn1cc(C2(c3nn(C)c(=O)o3)N[C@@H](c3nc(-c4ccc(F)cc4)c[nH]3)Cc3c2[nH]c2ccccc32)cn1 (stereo partly drawn) was tested. Which Ki did it give?
A: 3.4 nM

Q: For Cc1nc(C2(c3nnc(O)o3)N[C@@H](c3nc(-c4ccc(F)cc4)c[nH]3)Cc3c2[nH]c2ccccc32)no1 (stereo partly drawn), which Ki is on record?
A: 15.7 nM

Q: For Cn1cc(C2(c3nnc(O)o3)N[C@@H](c3nc(-c4ccc(F)cc4)c[nH]3)Cc3c2[nH]c2ccccc32)cn1 (single isomer, unassigned) [18], which Ki is on record?
A: 2.2 nM

Q: Which Ki does the source give for Cn1nc(C2(c3cnn(C4CC4)c3)N[C@@H](c3nc(-c4ccc(F)cn4)c[nH]3)Cc3c2[nH]c2ccccc32)oc1=O (stereo partly drawn) here?
A: 1.7 nM
